According to patent US20250296967A1, “COMPOSITION AND METHOD FOR DELIVERY OF BMP-2 AMPLIFIER/CO-ACTIVATOR FOR ENHANCEMENT OF OSTEOGENESIS” (Ferring B.V., priority 2006, published 2025):

System: ectopic bone
Test: Ectopic bone induction by B2A2-K-NS coated granules with exogenous recombinant BMP-2, subcutaneous implant in rats
Format: in vivo
Settings: BMP-2 (1 μg) but no B2A2-K-NS, 30 days
Method: Sterile ceramic granules (Berkeley Advanced Biomaterials, Inc.; 60:40 (HA:TCP)) where coated by immersing them for 30 minutes in a solution containing B2A2-K-NS (0-, 2.5-, 10-, 25 μg/ml). Thereafter, the solution was removed by aspiration and the granules allowed to air dry. The coated granules were then placed in sterile gelatin capsules. Immediately before subcutaneous implant in rats, the capsules were injected with a collagen-based gel (GFR-Matrigel) containing 1 μg recombinant BMP-2. The capsules were placed subcutaneously in young adult rats on the flanks in pre-prepared pouches and the surgical site closed with surgical clips. After 30 days, the implants were surgically removed, weighed, and palpated to assess hardness. The explants were then fixed with multiple changes into 70% ethanol. […] All implants coated with 25 ug B2A2-K-NS were judged to be palpably hardened (4/4), whereas implants containing BMP-2 but no B2A2-K-NS had less hardening (1/4). Implants coated with 2.5 or 10 μg B2A2-K-NS were intermediate (3/4). […] All implants coated with 25 ug B2A2-K-NS had histologically identifiable new bone (4/4), whereas implants containing BMP-2 but no B2A2-K-NS had less (1/4).

B1: BMP-2: recombinant bone morphogenic protein-2 in collagen-based gel (protein)
chain: QAKHKQRKRLKSSCKRHPLYVDFSDVGWNDWIVAPPGYHAFYCHGECPFPLADHLNSTNHAIVQTLVNSVNSKIPKACCVPTELSAISMLYLDENEKVVLKNYQDMVVEGCGCR
- implants judged palpably hardened: 1/4
- implants with histologically identifiable new bone: 1/4
